Assay type: physicochemical
Description: 2.71×10^−3 mole of ABSD zwitterion (anhydrous) were added to 5.42×10^−3 mole of NaOH and the mixture was dissolved in 2 mL of water. Then, crystallization was forced by adding an anti-solvent (Ethanol) in large excess (30 mL). After filtration, the solid was analyzed by XRPD. This XRPD pattern proves that a new phase has been crystallized. It should be the disodium salt of ABSD. A TGA-DSC analysis (coupled to mass spectrometry) was performed on this salt in order to observe its thermal behavior, and to determine its water content. According to this analysis, this phase loses water between 30 and 40° C.
A TGA-DSC analysis (coupled to mass spectroscopy) was performed on this phase (FIG. 8).
A TGA-DSC analysis coupled to a Mass Spectroscopy (MS) was performed on this phase (FIG. 10).

Substance: L-cysteinate
- melting-degradation temperature: circa 175 °C
- temperature of loss of water (TGA-DSC from 30° C., heating rate 5K/Min): circa 74 °C

— US9487477B2, “Crystalline phase of (3S,3S′) 4,4′-disulfanediylbis(3-aminobutane 1-sulfonic acid) with L-lysine” (Quantum Genomics, priority 2012, dated 2016)
